Two compounds from publication PMC7619385 (ACS infectious diseases, 2025) can be followed below.

By ΔTm is commonly meant the change in melting temperature against a reference sample.

Like-named read-outs stand apart in the source and are kept apart here.

In one experiment the target is T1, LmxCLK1 (Leishmania mexicana, UniProt E9AMP2).
T1 sequence (E9AMP2 1-422): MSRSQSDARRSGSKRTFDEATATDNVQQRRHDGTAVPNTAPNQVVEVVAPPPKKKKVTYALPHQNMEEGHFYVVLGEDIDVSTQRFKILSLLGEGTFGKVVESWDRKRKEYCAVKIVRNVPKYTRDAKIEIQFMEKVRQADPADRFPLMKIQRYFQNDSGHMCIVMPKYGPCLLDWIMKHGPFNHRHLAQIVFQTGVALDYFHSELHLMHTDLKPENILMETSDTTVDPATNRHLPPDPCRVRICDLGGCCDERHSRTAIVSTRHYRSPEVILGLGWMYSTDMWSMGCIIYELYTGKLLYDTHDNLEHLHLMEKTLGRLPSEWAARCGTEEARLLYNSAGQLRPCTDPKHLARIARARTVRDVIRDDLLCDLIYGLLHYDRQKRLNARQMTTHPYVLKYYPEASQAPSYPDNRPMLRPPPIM
The experiment in a line: biochemical. It is filed as binding.

The next experiment concerns the target NLuc::LmxCLK1 (Leishmania mexicana, UniProt E9AMP2). The experiment in a line: cell-based. The note with it: read-out: Target occupancy Average. The procedure:
All compounds were tested at a fixed concentration of 10 µM to enable direct comparison of their target occupancy in live cells.
Serially diluted probes (5 µL) were added to 85 µL of cells in culture media or 85 µL of purified protein. Final well volumes were adjusted to 100 µL with sterile Opti-MEM™ I Reduced Serum Medium (Thermo-Scientific) – for wells containing cells; or Kinase Buffer - for wells containing purified protein. For tracer displacement assays, samples were prepared as above, but final volume was brought to 100 µL by addition of vehicle or serially-diluted test compounds. Final DMSO concentration in these assays was 1%. […] Light emissions at 460+10 nm (BRET donor) and at 610+20 nm (BRET acceptor) were sequentially recorded (integration time = 0.5 s, gain = 3600) using a luminometer (BMG LABTECH Clariostar or Biotek Synergy HT). BRET values are reported in milli-BRET (mBRET) units (mBU), obtained by dividing the acceptor luminescence by the donor luminescence and multiplying the result by a factor of 1,000. BRET values were converted to blank-corrected probe occupancies (%) according to equation [1]: (1) Probeoccupancy(%)=X−Z/Y−Z×100 where X = mBRET value in the presence of the test compound and the probe, Y = mBRET value in the presence of probe only, and Z = mBRET value in the absence of probe and test compound. […]

As to `Nc1ccc(C(=O)Nc2cccc(-c3nc(N4CCOCC4)c4oc5ncccc5c4n3)c2)cn1` [YM201636], on LmxCLK1 (DSF, 10 µM compound, 2 µM LmxCLK1, mean of two runs), the “ΔTm Average” value came to 0.2 °C.
Regarding `CN[C@@H]1C[C@H]2O[C@@](C)([C@@H]1OC)n1c3ccccc3c3c4c(c5c6ccccc6n2c5c31)C(=O)NC4` [Staurosporine], the ΔTm at 10 µM is 10.1 ± 0.2 °C on LmxCLK1 (read-out: ΔTm Average, DSF, 10 µM compound, 2 µM LmxCLK1, mean of two runs); 10.3 °C at LmxCLK1 (read-out: ΔTm Run 1, DSF, 10 µM compound, 2 µM LmxCLK1, Run 1); 10 °C on LmxCLK1 (read-out: ΔTm Run 2, DSF, 10 µM compound, 2 µM LmxCLK1, Run 2). The receptor occupancy at 10 µM at NLuc::LmxCLK1 is 25.4 ± 2%.
